Article PMC9144445, “Substrate-Based Design of Cytosolic Nucleotidase IIIB Inhibitors and Structural Insights into Inhibition Mechanism” (Pharmaceuticals, 2022)

Protein sequences, listed by entry. Tags and fused reporters are not part of them. Lines headed by an entry give the natural chain unless they say otherwise; changes in a name come on top.
UniProt Q969T7: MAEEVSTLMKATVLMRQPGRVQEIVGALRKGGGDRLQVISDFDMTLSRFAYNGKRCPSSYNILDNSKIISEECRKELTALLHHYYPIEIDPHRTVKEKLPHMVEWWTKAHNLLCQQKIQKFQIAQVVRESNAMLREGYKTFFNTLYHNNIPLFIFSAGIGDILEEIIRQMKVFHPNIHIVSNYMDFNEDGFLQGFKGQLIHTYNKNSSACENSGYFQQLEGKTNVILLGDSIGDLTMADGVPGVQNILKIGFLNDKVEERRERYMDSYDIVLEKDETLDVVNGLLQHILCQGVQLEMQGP

What was measured:
[1] = target: T1, human cN-IIIB (Homo sapiens, UniProt Q969T7); test: Hydrolysis assay: susceptibility to hydrolysis by cN-IIIB (MGP assay); assay type: biochemical; settings: cN-IIIB 80 nM, 45 min
[2] = target: T1, human cN-IIIB; settings: m7GMP 100 μM + inhibitor 100 μM, cN-IIIB 80 nM, 45 min
[3] = library I, compound 100 μM, relative to m7GMP set to 100%

Row | Compound | Susceptibility to hydrolysis (%) ([1]; library II, compound 100 µM) | Susceptibility to hydrolysis (%) [1, 3] | Inhibition of cN-IIIB activity, first library (in words) [2]
1 | Nc1nc2c(c(=O)[nH]1)[n+](Cc1ccccc1)cn2[C@@H]1O[C@H](COP(=O)([O-])F)[C@@H](O)[C@H]1O | 0.0% | – | –
2 | C[n+]1cn([C@@H]2O[C@H](COP(=O)([O-])OP(=O)(O)F)[C@@H](O)[C@H]2O)c2nc(N)[nH]c(=O)c21 | – | 0.0% | –
3 | C[n+]1cn([C@@H]2O[C@H](COP(=O)([O-])F)[C@@H](O)[C@H]2O)c2nc(N)[nH]c(=O)c21 | 0.0% | 0.0% | inhibited cN-IIIB to some extent
4 | Nc1nc2c(c(=O)[nH]1)[n+](Cc1ccccc1)cn2[C@@H]1O[C@H](COP(=O)([O-])OP(=O)(O)F)[C@@H](O)[C@H]1O | 0.0% | – | –
